## Apparent affinities of Ab-14 variants for a coronavirus HR2 peptide

Reference: Engelhart et al. 2022, doi:10.1038/s41597-022-01779-4. File: FLAb, binding data.

All variants were tested on one target, the spike HR2 peptide PDVDLGDISGINAS (SARS-CoV-2).

The variants keep the light chain, the linker and the frameworks of Ab-14 (scFv order VH, the linker GGGGSGGGGSGGGGS, VL).
VH: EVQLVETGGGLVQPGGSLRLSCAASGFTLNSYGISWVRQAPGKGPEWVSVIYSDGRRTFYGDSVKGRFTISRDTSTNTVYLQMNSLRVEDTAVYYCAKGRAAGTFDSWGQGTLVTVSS
VL: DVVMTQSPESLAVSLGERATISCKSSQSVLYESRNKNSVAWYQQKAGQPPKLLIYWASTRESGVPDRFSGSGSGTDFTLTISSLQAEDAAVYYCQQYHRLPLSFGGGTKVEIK

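The starting antibody came from a phage panning campaign against this peptide. AAYL49 was designed without a model: most single CDR substitutions and a random sample of double and triple ones. The assay is AlphaSeq: two haploid yeast populations carry antibody and antigen on their surface. The frequency of each diploid, read from paired DNA barcodes, reflects how well the two displayed proteins bind. The ratio of observed to expected reads was calibrated, replicate by replicate, on BCL2-family standards whose Kd was known from biolayer interferometry. Mating was done three times.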

Substitutions are numbered in sequence along the VH above, starting at 1 (not Kabat).
This list gathers variants with a substitution at R100 (VH, numbered from residue 1).
Scale: log10 of Kd in nM, estimated from mating counts; low values are strong binders.
Averages over replicates are reported, and they cover detected replicates only.
"nd" means that the variant was in the library but no mating with the target was seen in any replicate; the authors take this as a sign of poor binding, and no number exists.

With D62Y/R100G/D106P the result was nd (0 of 3 replicates).
With F59D/R100L/A101Q the result was 2.78 (3 of 3 replicates).
With K65V/R100T/F105N the result was 3.49 (3 of 3 replicates).
With G26V/I51G/R100H the result was 3.62 (2 of 3 replicates).
With I34N/S53Q/R100Y the result was nd (0 of 3 replicates).
With L29Y/Y32V/R100D the result was 0.73 (3 of 3 replicates).
With K65W/R100M/F105R the result was 2.01 (3 of 3 replicates).
With L29A/R100E/A102H the result was 4.37 (2 of 3 replicates).
With D54T/G99M/R100M the result was 5.02 (3 of 3 replicates).
With S31Y/Y52C/R100Y the result was nd (0 of 3 replicates).
With L29S/R100G/G103C the result was nd (0 of 3 replicates).
With I34H/K65H/R100G the result was nd (0 of 3 replicates).
With V50R/Y60T/R100V the result was nd (0 of 3 replicates).
With D54V/R100N/S107N the result was nd (0 of 3 replicates).
With Y60E/R100A/A101M the result was 2.73 (3 of 3 replicates).
With R57C/F59W/R100Q the result was 2.99 (1 of 3 replicates).
With F59D/R100M/T104K the result was nd (0 of 3 replicates).
With G55K/R100G/A102S the result was nd (0 of 3 replicates).
With R100G the result was 1.78 (3 of 3 replicates).
With I34H/R57S/R100A the result was 3.20 (1 of 3 replicates).
With N30P/R100N/S107M the result was 1.36 (3 of 3 replicates).
With T28I/G99W/R100I the result was 2.46 (3 of 3 replicates).
With R100V/G103D the result was 0.95 (3 of 3 replicates).
With I51A/K65M/R100E the result was 2.66 (3 of 3 replicates).
With G61H/R100W/S107H the result was 4.00 (1 of 3 replicates).
With R100S the result was 1.11 (3 of 3 replicates).
With R57F/R100A the result was 2.76 (1 of 3 replicates).
With F59H/D62M/R100Q the result was 2.79 (3 of 3 replicates).
With F27K/D54F/R100N the result was nd (0 of 3 replicates).
With Y32R/G55F/R100L the result was nd (0 of 3 replicates).
With G55M/R100I/D106Q the result was nd (0 of 3 replicates).
With R56M/R100Q/S107L the result was 0.44 (3 of 3 replicates).
With R100K the result was 0.63 (3 of 3 replicates).
With Y60F/S63Y/R100S the result was 4.64 (1 of 3 replicates).
With Y32G/R100S/F105M the result was nd (0 of 3 replicates).
With S35E/S63G/R100P the result was nd (0 of 3 replicates).
With F27M/T28E/R100S the result was 0.99 (3 of 3 replicates).
With S53M/K65E/R100T the result was nd (0 of 3 replicates).
With G33P/V64K/R100L the result was 3.30 (1 of 3 replicates).
With I51P/S63Q/R100Y the result was 4.75 (2 of 3 replicates).
With N30I/G33A/R100C the result was nd (0 of 3 replicates).
With R57W/V64M/R100D the result was nd (0 of 3 replicates).
With Y60N/R100K the result was 3.13 (2 of 3 replicates).
With Y52I/G99V/R100I the result was nd (0 of 3 replicates).
With R56M/R100C the result was 4.05 (2 of 3 replicates).
With S31W/R100D/G103A the result was 2.44 (1 of 3 replicates).
With R100A the result was 0.62 (3 of 3 replicates).
With R100C/T104W the result was nd (0 of 3 replicates).
With V50N/R57K/R100W the result was 3.82 (2 of 3 replicates).
With F27E/F59E/R100S the result was 2.97 (1 of 3 replicates).

Picked from the list: the 6 lowest averages where every replicate gave a value.

changes	log10 Kd (nM), mean	seen in
R56M/R100Q/S107L	0.44	3/3
R100A	0.62	3/3
R100K	0.63	3/3
L29Y/Y32V/R100D	0.73	3/3
R100V/G103D	0.95	3/3
F27M/T28E/R100S	0.99	3/3

Background: pairings of library AAYL49 with three empty control strains gave a value in 15% of cases (median 4.06, 5th percentile 2.83). Values in that range, when seen in few replicates, are hard to tell from nonspecific mating.
Parent in this assay: reference entry 0.65, copy in this library 4.11 (one replicate of three).